Key:
[1] = target: Cruzipain (Trypanosoma cruzi) (UniProt P25779); test: Inhibition of Trypanosoma cruzi cruzain using Z-FR-AMC as substrate at 100 uM by fluorimetric analysis relative to control
Trypanosoma brucei = test: Inhibition of TbrCatL using Z-FR-AMC as substrate at 100 uM preincubated for 10 mins followed by substrate addition by fluorimetric analysis relative to control
[2] = target: Cruzipain (Trypanosoma cruzi) (UniProt P25779); test: Inhibition of Trypanosoma cruzi cruzain using Z-FR-AMC as substrate at 100 uM preincubated for 10 mins followed by substrate addition by fluorimetric analysis relative to control

The chains behind the UniProt entries cited, without tags or fusion partners. Where a name states a change or a piece, a line headed by the entry shows the natural chain unless it says otherwise.
UniProt P25779: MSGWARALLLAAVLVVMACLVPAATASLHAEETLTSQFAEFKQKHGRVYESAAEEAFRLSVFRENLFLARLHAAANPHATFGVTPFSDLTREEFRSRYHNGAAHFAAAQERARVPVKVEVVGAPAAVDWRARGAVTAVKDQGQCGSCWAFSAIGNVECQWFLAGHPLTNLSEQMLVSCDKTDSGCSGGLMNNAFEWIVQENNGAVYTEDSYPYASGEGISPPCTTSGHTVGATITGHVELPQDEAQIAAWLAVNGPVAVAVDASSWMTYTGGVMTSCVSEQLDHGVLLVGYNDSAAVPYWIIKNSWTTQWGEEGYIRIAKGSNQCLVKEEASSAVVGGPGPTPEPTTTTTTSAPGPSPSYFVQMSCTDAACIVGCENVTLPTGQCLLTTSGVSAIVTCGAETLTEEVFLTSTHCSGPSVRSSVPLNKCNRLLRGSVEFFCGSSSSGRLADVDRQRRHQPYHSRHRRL

SMILES	inhibition [1] [%]	inhibition (Trypanosoma brucei) [%]	inhibition [2] [%]
OCC(CO)NCc1ccc(-c2ccc(Br)cc2Cl)o1	63	63	67
Clc1cc(Br)ccc1-c1ccc(CNCCN2CCOCC2)o1	63	–	73
OCC(CO)NCc1ccc(-c2ccc(Cl)c(C(F)(F)F)c2)o1	66	–	44
OCCNCc1ccc(-c2ccc(Br)cc2Cl)o1	63	–	73

— ChEMBL document CHEMBL5247638, “From rational design to serendipity: Discovery of novel thiosemicarbazones as potent trypanocidal compounds” (Eur J Med Chem, 2022)
